OPERA 2.9 data: properties

Melting points are in °C.
The boiling point refers to atmospheric pressure (760 mmHg), by the definition of the set.
logP is the log10 of the octanol-water partition coefficient; higher is more lipophilic.
Solubility in water is on a log10 molar scale (set defined at 25 °C).
Vapor pressure is log10 of mmHg; the set covers 15 to 30 °C, mostly 20 to 25 °C.
The unbound fraction in human plasma runs from 0 (all bound) to 1 (all free).

The entry for OC1CCc2[nH]c3ccccc3c2C1 (stereo not given) [2,3,4,9-tetrahydro-1H-carbazol-3-ol] lists mp 146.2 °C and logP 2.07 and log solubility -2.697 (log10 mol/L) and log vapor pressure -6.216 (log10 mmHg).
The entry for CCOC(=O)C(Cc1cc(I)c(Oc2ccc(OC)cc2)c(I)c1)NC(C)=O (stereo not given) [Ethyl N-acetyl-3,5-diiodo-O-(4-methoxyphenyl)tyrosinate] lists mp 130 °C and logP 3.6 and log solubility -6.151 (log10 mol/L).
The entry for CC(C/N=C/c1ccccc1O)/N=C/c1ccccc1O (stereo partly drawn) [N,N'-Disalicylidene-1,2-diaminopropane] lists logP 3.6 and log solubility -3.172 (log10 mol/L).
The entry for CN1CCN(C(c2ccccc2)c2ccccc2)CC1 [Cyclizine] lists logP 3 and fu 0.4.
The entry for Cc1cc(O)c(C(C)(C)C)cc1C(C)CC(c1cc(C(C)(C)C)c(O)cc1C)c1cc(C(C)(C)C)c(O)cc1C (stereo not given) lists log solubility -7.134 (log10 mol/L) and log vapor pressure -7.932 (log10 mmHg).
The entry for COC(=O)N/N=C/c1c[n+]([O-])c2ccccc2[n+]1[O-] [Carbadox] lists logP 0.13 and log solubility -3.655 (log10 mol/L).
The entry for CC1(C)C(O)C(C)(C)C1O (stereo not given) [2,2,4,4-Tetramethylcyclobutane-1,3-diol] lists logP 1.6 and log vapor pressure -3.33 (log10 mmHg).
The entry for CCCNCC [1-Propanamine, N-ethyl-] lists mp -51.5 °C and log vapor pressure 1.779 (log10 mmHg).
The entry for Cc1ccc(N=Nc2c(O)ccc3ccccc23)c(C)c1 [C.I. Solvent Orange 7] lists logP 6.6 and log solubility -6.705 (log10 mol/L) and log vapor pressure -7.932 (log10 mmHg).
The entry for NS(=O)(=O)c1cc2c(s1)C(O)CCS2=O (stereo not given) lists mp 190 °C and log solubility -1.57 (log10 mol/L).
The entry for COc1cc([N+](=O)[O-])ccc1N=NC(C(C)=O)C(=O)Nc1cc(Cl)ccc1OC (stereo not given) lists mp 301 °C and log solubility -7.466 (log10 mol/L).
The entry for CC1(C2CCC3C4=CC=C5CC6(CCC5(C)C4CCC32C)OCCO6)OCCO1 (stereo not given) lists mp 187 °C and logP 6.7 and log solubility -6.7 (log10 mol/L).
The entry for CCCCCCOC1CCC(C)(C)O1 (stereo not given) [Furan, 5-(hexyloxy)tetrahydro-2,2-dimethyl-] lists mp -86 °C and BP 224 °C and logP 5.6 and log solubility -3.496 (log10 mol/L) and log vapor pressure -1.23 (log10 mmHg).
The entry for CCn1c(O)c(N=Nc2ccccc2[N+](=O)[O-])c(C)c(C#N)c1=O lists mp 260 °C and logP 3.3 and log solubility -6.816 (log10 mol/L) and log vapor pressure -5.727 (log10 mmHg).
The entry for N#CCC(=O)Nc1ccccc1Cl [N-(2-chlorophenyl)-2-cyanoacetamide] lists mp 125 °C and log solubility -2.298 (log10 mol/L).
The entry for CC(=O)c1cc2ccccc2o1 [Ethanone, 1-(2-benzofuranyl)-] lists logP 1.94 and log solubility -2.548 (log10 mol/L) and log vapor pressure -2.815 (log10 mmHg).
The entry for Cc1cc(/N=N/c2ccc(/C=C/c3ccc(/N=N/c4c(C)cc(O)cc4C(=O)[O-])cc3S(=O)(=O)[O-])c(S(=O)(=O)[O-])c2)cc(C(=O)[O-])c1O.[Li+].[Li+].[Li+].[Li+] lists mp 147.3 °C and logP -4.04.
The entry for C=C(C)C(=O)OCCCCCCOC(=O)C(=C)C [1,6-Hexanediol dimethacrylate] lists mp -0.445 °C and logP 4.08 and log solubility -4.044 (log10 mol/L).
The entry for CC(=O)OCC1=C(C(=O)O)N2C(=O)[C@@H](NC(=O)CSc3ccncc3)[C@H]2SC1 [Cephapirin] lists log solubility -2.611 (log10 mol/L) and fu 0.5083.
The entry for Nc1nc(-c2ccc3ccccc3c2)cs1 [4-(Naphthalen-2-yl)-1,3-thiazol-2-amine] lists logP 3.59 and log solubility -4.85 (log10 mol/L) and log vapor pressure -7.641 (log10 mmHg).
The entry for NCC(O)CO (stereo not given) [1,2-Propanediol, 3-amino-] lists mp -21 °C and log vapor pressure -3.011 (log10 mmHg).
The entry for N#CCCN(CCc1ccccc1)c1ccc(N=Nc2ccc([N+](=O)[O-])cc2C#N)cc1 lists mp 167 °C and logP 4.8 and log solubility -7.306 (log10 mol/L).
The entry for CC1(C)O[C@@H]2C[C@H]3[C@@H]4CCC5=CC(=O)C=C[C@]5(C)[C@H]4[C@@H](O)C[C@]3(C)[C@]2(C(=O)CO)O1 [Desonide] lists logP 1.4 and log solubility -3.846 (log10 mol/L).
The entry for C=C(CC(=O)OCCCC)C(=O)OCCCC [Dibutyl itaconate] lists logP 3.8 and log solubility -3.51 (log10 mol/L) and log vapor pressure -2.992 (log10 mmHg).
The entry for CS(=O)(=O)c1ccc(C(=O)C2C(=O)CCCC2=O)c(Cl)c1COCC1CCCO1 (stereo not given) [Tefuryltrione] lists mp 115 °C and log solubility -3.621 (log10 mol/L) and log vapor pressure -11.58 (log10 mmHg).
The entry for C1CNCCNCCNCCN1 [Cyclen] lists logP -1.5 and log vapor pressure -4.364 (log10 mmHg).
The entry for C=CN1CCN(C=C)C1=O [2-Imidazolidinone, 1,3-diethenyl-] lists mp 69 °C and logP 1.2 and log vapor pressure -2.404 (log10 mmHg).
The entry for CCCCCCC1CCCC1=O (stereo not given) [2-Hexylcyclopentanone] lists BP 270.9 °C and logP 3.9 and log solubility -3.452 (log10 mol/L) and log vapor pressure -1.803 (log10 mmHg).
The entry for COCC(CCC(C)C)(COC)C(C)C [3,3-Bis(methoxymethyl)-2,6-dimethylheptane] lists mp -95.5 °C and BP 224.2 °C and logP 2.5 and log vapor pressure -0.71 (log10 mmHg).
The entry for CC(=O)Nc1ccc(F)cc1Br [N-(2-bromo-4-fluorophenyl)acetamide] lists logP 1.5 and log solubility -2.043 (log10 mol/L).
The entry for CCCCCCCCC=CCCCCCCCC(=O)OCCCCCCCCCCCCCC lists mp 15 °C and log solubility -6.981 (log10 mol/L).

A selection of 2 entries from above:

For CCCCCCCCC=CCCCCCCCC(=O)OCCCCCCCCCCCCCC the data give mp 15 °C and log solubility -6.981 (log10 mol/L).
For Cc1cc(/N=N/c2ccc(/C=C/c3ccc(/N=N/c4c(C)cc(O)cc4C(=O)[O-])cc3S(=O)(=O)[O-])c(S(=O)(=O)[O-])c2)cc(C(=O)[O-])c1O.[Li+].[Li+].[Li+].[Li+] the data give mp 147.3 °C and logP -4.04.

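These are experimental values that the OPERA curators gathered from public databases to train and test their QSAR models. A listed value is a point estimate from one report or more. Conditions of the individual experiments are not part of the data. The measured form (salt, isomer or mixture) is not always the one drawn. Some upstream entries may be estimates or bounds without being marked so.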

Values as listed in the OPERA 2.9 repository of K. Mansouri.